Results on one molecule are retold here after ChEMBL document CHEMBL1136782, “Further studies on 2,4-diamino-5-(2',5'-disubstituted benzyl)pyrimidines as potent and selective inhibitors of dihydrofolate reductases from three major opportunistic pathogens of AIDS” (J Med Chem, 2003).

This assay is described as follows: Relative affinity for Dihydrofolate reductase of rat liver and Mycobacterium avium.

For `COc1ccc(OCCCC(=O)O)cc1Cc1cnc(N)nc1N`, the Selectivity index is 560.
